Molecules are shown by their SMILES.

The target of this assay is T1, HMG-CoA reductase (Homo sapiens, UniProt P04035).
T1 construct: oxidation of NADPH by the catalytic subunit of HMGR in the presence of the substrate HMG-CoA; purchased Sigma-Aldrich CS1090 (kit); H8789 (HMG-CoA reductase)
T1 sequence (P04035 340-888 limits assumed): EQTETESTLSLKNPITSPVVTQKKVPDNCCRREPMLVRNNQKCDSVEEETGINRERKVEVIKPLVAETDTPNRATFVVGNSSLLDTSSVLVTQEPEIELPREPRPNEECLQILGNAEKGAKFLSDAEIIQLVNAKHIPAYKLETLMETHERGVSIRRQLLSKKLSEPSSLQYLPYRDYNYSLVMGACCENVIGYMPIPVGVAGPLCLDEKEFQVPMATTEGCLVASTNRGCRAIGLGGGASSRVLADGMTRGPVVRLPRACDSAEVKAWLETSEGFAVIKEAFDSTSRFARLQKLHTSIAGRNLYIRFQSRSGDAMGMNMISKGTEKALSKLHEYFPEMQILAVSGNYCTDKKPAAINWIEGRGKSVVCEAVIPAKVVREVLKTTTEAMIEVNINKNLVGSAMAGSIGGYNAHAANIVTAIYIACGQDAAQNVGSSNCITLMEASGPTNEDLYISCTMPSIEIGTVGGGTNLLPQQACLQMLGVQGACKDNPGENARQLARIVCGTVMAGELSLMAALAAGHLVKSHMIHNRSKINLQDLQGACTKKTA
Nature of the assay: HMG-CoA Reductase assay kit (spectrophotometric NADPH absorbance at 340 nm). In kind it is biochemical. As to conditions: NADPH and HMG-CoA both 200 μM, inhibitor concentrations varied from 0 nM to 50 nM, 37° C. The procedure: All assays were carried out in a reaction buffer containing […] KxPO4 at pH 7.2, 1 mM EDTA, 500 mM KCl and 1 mg/ml BSA. The concentrations of NADPH and HMG-CoA were both 200 μM. The enzyme concentration used is unknown although this concentration is 10-fold lower than that of the stock solution purchased. […] Reactions were activated by the addition of enzyme and agitated for 12 seconds following the addition. Absorbance readings were then taken every 20 seconds for 600 seconds. In initial tests the concentration of each inhibitor was set at 50 nM to identify which compounds were the better inhibitors, compared to the known Pravastatin inhibitor. After these were identified, assays were carried out varying their concentrations from 0 nM to 50 nM allowing IC50 values to be calculated.
This is illustrated in the following reaction scheme:
HMG-CoA+2NADPH+2H^+→mevalonate+2NADP^++CoA-SH
Add a buffer to all samples. • b. […] Add the reconstituted NADPH to all samples. • d. Add Substrate Solution (HMG-CoA) to all samples. • e. […] Mix the samples thoroughly.
3. The kinetics programme was started immediately.

By IC50 is commonly meant the midpoint of a concentration-inhibition curve. A low value points to inhibition by little substance. The molecule `CC(C)c1c(C(=O)Nc2ccccc2)c(-c2ccccc2)c(-c2ccc(F)cc2)n1CC[C@@H](O)C[C@@H](O)CC(=O)O` registered an IC50 of 7 nM.
